Among the data in article PMC8741243 (Journal of Enzyme Inhibition and Medicinal Chemistry, 2022) are Ki values, retold here.

By UniProt entry, the sequences of proteins in these tests, tags left out. Residues count along the entry.
UniProt P00915, 2-261: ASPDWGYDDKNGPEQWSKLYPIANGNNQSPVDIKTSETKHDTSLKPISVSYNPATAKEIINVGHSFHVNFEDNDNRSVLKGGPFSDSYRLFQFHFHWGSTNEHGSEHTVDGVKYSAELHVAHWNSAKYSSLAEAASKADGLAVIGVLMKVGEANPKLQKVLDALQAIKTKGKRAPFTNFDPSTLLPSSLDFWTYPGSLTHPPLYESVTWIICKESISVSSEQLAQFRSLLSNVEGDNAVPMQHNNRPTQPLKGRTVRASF

In assay [1] the target is T1, hCA II (Homo sapiens, UniProt P00918).
T1 construct: gene CA2; recombinant, obtained in-house as described earlier
Description: stopped-flow CO2 hydration. Type of assay: biochemical.

For assay [2], the target named is T2, hCA I (Homo sapiens, UniProt P00915).
T2 construct: gene CA1; recombinant, obtained in-house as described earlier
In words: stopped-flow CO2 hydration. Type of assay: biochemical.

On to `O=c1ccc2ccc(O)cc2o1` [compound 3, 3], for which the Ki stood at 691 µM in assay [1] and 263 µM in assay [2].

A word on the Ki: it is the equilibrium dissociation constant of an inhibitor or competing ligand from its target. Read a low Ki as tighter binding.
